Only a part is listed here, and it is no random draw. Results filed as inconclusive are left out. Active and inactive are the calls of the source. The calls were made as follows: active = hit-call score of the fitted dose curve at least 0.9, where 1 is the maximum; inconclusive = response in the unintended direction; inactive = score below 0.9.

Protein sequences, listed by entry. Tags and fused reporters are not part of them. Lines headed by an entry give the natural chain unless they say otherwise; changes in a name come on top.
UniProt Q01717: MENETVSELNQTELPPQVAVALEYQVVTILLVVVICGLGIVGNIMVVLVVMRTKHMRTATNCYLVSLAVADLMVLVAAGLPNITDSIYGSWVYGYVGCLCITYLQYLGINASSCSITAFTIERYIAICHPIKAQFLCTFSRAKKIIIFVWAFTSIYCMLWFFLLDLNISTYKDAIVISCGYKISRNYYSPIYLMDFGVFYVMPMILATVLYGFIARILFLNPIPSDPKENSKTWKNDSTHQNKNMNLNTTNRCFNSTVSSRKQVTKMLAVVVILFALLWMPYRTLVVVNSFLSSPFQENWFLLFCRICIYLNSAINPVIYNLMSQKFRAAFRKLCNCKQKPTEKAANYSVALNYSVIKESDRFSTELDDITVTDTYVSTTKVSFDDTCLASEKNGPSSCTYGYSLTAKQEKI

The assay addresses rat Thyrotropin Releasing Hormone Receptor (TRH), Trhr (gene 25570) (UniProt Q01717). Nature of the assay: NVS_GPCR_rTRH: NovaScreen (NVS) G Protein-Coupled Receptor Assay for rat Thyrotropin Releasing Hormone Receptor (TRH) (AID 2283329).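 Also: hit means lower bound tracer signal versus DMSO baseline.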 On the procedure:
NVS_GPCR_rTRH is a biochemical, single-readout assay that uses extracted gene-proteins from Rat forebrain membranes in a tissue-based cell-free assay. Measurements were taken 4 hours after chemical dosing in a 48-well plate.NVS_GPCR_rTRH is one of one assay component(s) measured or calculated from the NVS_GPCR_rTRH assay. It is designed to make measurements of radioligand binding, a form of binding reporter, as detected with scintillation counting signals by Filter-based radiodetection technology.Data from the assay component NVS_GPCR_rTRH was analyzed into 1 assay endpoint. This assay endpoint, NVS_GPCR_rTRH, was analyzed in the positive analysis fitting direction relative to DMSO as the negative control and baseline of activity. Using a type of binding reporter, loss-of-signal activity can be used to understand changes in the binding as they relate to the gene Trhr. Furthermore, this assay endpoint can be referred to as a primary readout, because the performed assay has only produced 1 assay endpoint. To generalize the intended target to other relatable targets, this assay endpoint is annotated to the gpcr intended target family, where the subfamily is rhodopsin-like receptor.
Binding assays used specific radioligands (tritiated, iodinated) with non-radioactive competitive displacement ligands in agonist or antagonist protocols (as indicated) and various reference compounds and inhibitors to titrate specific binding to receptors and transporters. Most enzyme assays (CYPs, kinases, phosphatases, proteases, HDACs) used recombinant protein and specific substrates (fluorescence mostly, some colorimetric and radioactive) and inhibitors, followed by a biochemical separation of substrate and product. All assays for the biochemical HTS were initially run in duplicate at a single concentration (10 uM for CYP450 assays and 25 uM for all others). […] Each assay was run with positive and negative controls, and concurrent controls on every plate. […]
Regarding `CC(C)CCCCCCCOP(OCCCCCCCC(C)C)Oc1ccccc1`, the molecule was called inactive.

Regarding `O=C1C2CC=CCC2C(=O)N1SC(Cl)(Cl)C(Cl)Cl` (stereo not drawn), the call was inactive. For the molecule `O=[P+](Oc1ccccc1)Oc1ccccc1`, the outcome was inactive.

These data come from PubChem BioAssay (EPA / NIEHS).
